Laboratory results published in patent publication US7655392B2, “Quenching methods for red blood cell inactivation process” (priority 2004, dated 2010).

Assay: pH of quencher stock and of RBC mixture
Format: physicochemical
Conditions: 600 mM in 8% dextrose + 2 eq. base, room temperature
Procedure: The effect of various quenching conditions on the pH of a red blood cell composition was determined for various treatment conditions. The quencher solutions were prepared at a concentration of 600 mM in 8% dextrose monohydrate. […] Glutathione was assessed at 2 mM (acidic) or 20 mM (2 eq. of base). […] The pH of the quencher solution, either unmodified or neutralized, was measured using a standard Epoxy Calomel electrode (Beckman Instruments) at room temperature. […] The samples were mixed and the pH at room temperature was measured using the same electrode as described above.
In these, the appropriate amount of 600 mM stock was added, mixed with an appropriate volume of 8% dextrose to provide the same volume addition to each RBC sample where in one study, with varied glutathione concentrations, the pH was measured after adding glutathione and after adding PIC-1. […] Similar samples were also assessed for the inactivation of S. epidermidis. […] For gel card analysis, after incubation, the RBC were washed in BBS and were diluted in BBS to a final hematocrit of 4%. A 25 μL aliquot of each was mixed with 15 μL of rabbit polyclonal anti-acridine sera diluted either 1:4 or 1:100 in BBS and the mixture was incubated at 37° C. for 30 minutes. The cells were subsequently washed with 1.5 mL BBS. […]

Substance: cysteine-glycine [CysGly]
- pH of stock quencher: 8.5
